Data from patent publication US20250195523A1, “ORGANIC MOLECULES FOR TREATING MYELIN PATHOLOGIES” (ICM (INSTITUT DU CERVEAU ET DE LA MOELLE ÉPINIÈRE), priority 2022, published 2025).

Columns and labels:
[1] = system: focal demyelination in the corpus callosum of adult mice; test: Lysolecithin (LPC) induced focal de/remyelination model in adult mice, oral administration in drinking water; type: in vivo; details: 7 dpl, oral daily
Procedure: We weighted and anesthetized 4 months old RjOrl: SWISS mice (Janvier) with isoflurane (induced at 3%, and maintained at 1.2-1.6%). We induced focal demyelinating lesions by injecting 0.5 μl of a solution of 1% lysolecithin (LPC, Sigma in 0.9% NaCl solution) into the corpus callosum. To do so, a glass-capillary connected to a 10 μl Hamilton syringe was fixed and oriented through stereotaxic apparatus (coordinates: 1 mm lateral, 1.3 mm rostral to Bregma, 1.7 mm deep to brain surface). Animals were left to recover for a few hours in a warm chamber. Control and drugs sm5 and sm11 (sm5 at 5 μg per g and sm11 at 035 μg per g) were administered daily in 5%-glucose drinking water and their consumption was measured. Mice was perfused at 2% cold paraformaldehyde (thermos fisher) at 7 DPI.
For in-vivo cryosections (14-μm thick) of lesions, immunohistochemistry was performed after 30 mn drying at RT in a moist chamber. For myelin staining, ethanol treatment (100%) was performed for 10 mn at RT. Briefly, sections were permeabilized and blocked in a blocking buffer for 1 h (0.05% Triton X-100/10% normal goat serum/PBS). […]
To assess the pro-oligodendrogenic capacity of sm5 and sm11 in vivo in the context of adult remyelination, we used lysolecithin (LPC) to induce the breakdown of lipid-rich myelin membranes and focal demyelination in the corpus callosum of adult (4 months old) mice. […] We analyzed the lesions at 7 days post-lesion (7 dpl), when newly formed OLs have started to remyelinate the lesion in this model. […] We determined the effect of the drugs to promote oligodendrogenesis at the lesion site by combinatory immunodetection of Olig2, CC1 and Olig1, allowing to distinguish OPCs (Olig2^high/CC1^−/Olig1^nuclear-cyto cells) and three stages in OL differentiation: iOL1 (Olig2^high/CC1^high/Olig1^− cells), iOL2 (Olig2^high/CC1^high/Olig1^high-cyto cells), and mOL (Olig2^low/CC1^low/Olig1^low cells). […]

[2] = system: cerebellar slices explants; test: Ex vivo cerebellar organotypic explant culture, differentiation and myelination index; type: cell-based, mice; details: 750 nM, three days (7-10 DIV)
Procedure: We prepared cerebellar organotypic cultures from newborn (P0) mice. Cerebellar parasagittal slices (350 μm thick) were cut on a McIlwain tissue chopper and transferred onto 30 mm diameter Millipore culture inserts with […] (Millicell, Millipore). Slices were maintained in incubators at 37° C., under a humidified atmosphere containing 5% CO2 in six-well-plates containing 1 mL of slice culture media. This medium includes basal medium eagle (Invitrogen), 25% complete HBSS, 27 mM D-glucose, 100 U/mL penicillin/streptomycin, 1 mM glutamine (Sigma) and 5% horse serum (New Zealand origin, heat inactivated; Invitrogen). […]
Then, we firstly performed a simpler and faster experimental model using cerebellar slices explants to identify the best drugs having pro-oligodendrogenenic and pro-myelinating activities in this ex vivo model, to be used in the in vivo analyses. […] Therefore, we analyzed the effect of incubating the cerebellar explants for three days (7-10 days in vitro, DIV) in the presence of the top-4 small molecules having higher pro-oligodendrogenic activity in culture (sm1, sm2, sm5, sm11), and their associated negative controls (vehicle: DMSO or PBS). We then analyzed the effect in terms of OL numbers (CC1+/Sox10+ cells) and myelination (MBP labeling on CaBP+ Purkinje cell axons), by immunodetection of all four markers in the same sections. […]

[3] = system: neonatal chronic hypoxia model (dorsal SVZ and cortex); test: Neonatal chronic hypoxia model of preterm birth brain injury, intranasal administration; type: in vivo, mice
Procedure: Mice aged P1 were placed in a hypoxic rearing chamber maintaining at 9.5-10.5% O2 concentration by displacement with N2. Hypoxia began at the postnatal day 3 (P3) for 8 days until P11. A separate group was maintained in a normal atmosphere (normoxic group). Drugs were administered by intranasal administration with sm5 at 5 μg per g and sm11 at 0.5 μg per g. Mucus was first permeabilized by the use of type IV hyaluronidase, then 10 μl of drugs (Sigma) was administered 3 times, 1 time a day from P11 to P13 (starting at the end of the hypoxic period, then every 24 hours) in sterile PBS (control). For analysis of proliferation, mice were injected with EdU (Sigma) in order to label cells in an actively cycling state in S-phase, then perfused 1 h later at P13. For analysis of OL maturation, mice were perfused at P19. All perfusions were performed with Ringer, followed by ice cold solution of 4% paraformaldehyde (Thermo Fisher). Mice were sacrificed at P13 or P19 by an intraperitoneal overdose of pentobarbital followed by perfusion with Ringer's lactate solution and 4% paraformaldehyde (PFA; Sigma) dissolved in 0.1M phosphate buffer (PB; pH 7.4). Brains were removed and post-fixed for 24 hours at 4° C. in 4% PFA and sectioned in 50 μm thick coronal serial sections, free floating sections.
For in vivo-cryosections (50 μm) of chronic hypoxia, antigen retrieval was performed for 20 min in a citrate buffer (ph 6.0) at 80° C., then cooled for 20 min at room temperature and washed in 0.1M PB. The following antibody were used for immunohistochemical procedures: Mouse anti-APC (CC1 IgG2B; 1:100, calbiochem); Mouse anti-Olig2 (1:1500; Millipore); Rabbit anti-Olig2 (1:400; Millipore); Rabbit anti-GSTpi (1:1000, Enzo). Blocking was performed in a TNB buffer (0.1 M PB; 0.05% Casein; 0.25% Bovine Serum Albumin; 0.25% TopBlock) with 0.4% triton-X (TNB-Tx). Sections were incubated overnight at 4° C. with gentle shaking. Following extensive washing in 0.1 M PB with 0.4% triton-X (PB-Tx), sections were incubated with appropriate secondary antibodies conjugated with Alexa Fluor 488 or 555 (1:500; Jackson or Invitrogen) for 2 hrs at room temperature. Sections were washed and counterstained with Dapi (1:5000 from a working solution at 5 mg/ml; Life Technologies; D1306). Revelation of EdU was done using Click-it™, EdU cell proliferation Kit for imaging, Alexa fluor™ 647 dye (Thermo Fisher scientific).
Chronic hypoxia is a well-established model of very preterm birth, that induces a diffuse perinatal brain lesion by housing the pups at 10% oxygen from P3 to P11 (FIG. 5A). This neonatal hypoxia induces a marginal cell death including neuronal and glial cells along with delay into forebrain development including OL maturation that appear to persist in adulthood. Thus, we assessed sm5 and sm11 effects, as pro-oligodendroglial treatment, following hypoxia. […] To examine the impact of Sm5 and Sm11 on OL lineage proliferation, brains were analyzed at P13, corresponding to the end of the treatment period, following an administration of EdU one hour before sacrifice to label cells in S-phase. […] To look at the impact of sm5 and sm11 on OL lineage proliferation and maturation, brains were analyzed within the cortex six days following the last administration (P19). […] We next assessed the impact on OL differentiation by immunodetection of OLs with CC1 antibody and oligodendroglial cells by Olig2. […]

Nc1nc(=O)c2c([nH]1)NCC(CNc1ccc(C(=O)N[C@@H](CCC(=O)O)C(=O)O)cc1)N2C=O.[Ca+2] (stereo partly shown) [Sm11, Calcium folinate]
increase of the differentiation ratio (number of OLs per OPC) versus control ([1]; FIG. 4F): 3 fold | reduction in the actively phagocytic microglia/macrophages (Cd68+ cells) versus control ([1]; FIG. 4H): ~2 fold | differentiation ratio (number of OLs per OPC) ([1]; control 25% (1 OLs for 4 OPCs), FIG. 4F): 85% | differentiation index (CC1+/Sox10+ OLs number) ([2]; compared to negative controls, FIG. 3B): increased differentiation index | myelination process (MBP+/CaBP+), myelination index ([2]; compared to vehicle, FIG. 3C): robust increase | EdU+ cell density within the subventricular zone (proliferation) ([3]; P13, intranasal P11 to P13, sm5 at 5 μg per g, sm11 at 0.5 μg per g, versus hypoxia, FIG. 6A): no marked additive effects | proportion of Olig2+ cells labeled with EdU (proliferative OPCs, dorsal SVZ) ([3]; P13, intranasal P11 to P13, versus hypoxia, FIG. 6B): significant increase | myelinating OLs (GSTπ+ cells), GSTπ expression ([3]; P19, cortex, intranasal P11 to P13, after hypoxia, FIG. 5D): complete recovery | OL differentiation, ratio of Olig2+ cells expressing CC1 ([3]; P19, cortex, intranasal P11 to P13, compared to hypoxic and normoxic groups, FIG. 5C): rescued the ratio at a similar level than the normoxic group | density of oligodendroglial cells (Olig2+ cells) in the cortex ([3]; P19, intranasal P11 to P13, FIG. 5B): no major effect
